The target in the assay is T1, RARa ligand binding domain (LBD) (Homo sapiens, UniProt P10276).
T1 construct: purchased Invitrogen
Kind of assay: Cell-free TR-FRET assay, PGC-1a recruitment to RARa LBD. The format is biochemical. The protocol: Lanthascreen” TR-FRET RARa and RXR13 coactivator assays (Invitrogen) were performed as per manufacturer protocol using a PerkinElmer (Waltham, Mass.) EnVision™ fluorescence plate reader.
A general note: Time-resolved FRET reads energy transfer from a long-lived donor to a nearby acceptor.

Amino acid sequences for entries named in this document (tags omitted). Residues count along the entry.
UniProt P10276, 183-417 limits assumed: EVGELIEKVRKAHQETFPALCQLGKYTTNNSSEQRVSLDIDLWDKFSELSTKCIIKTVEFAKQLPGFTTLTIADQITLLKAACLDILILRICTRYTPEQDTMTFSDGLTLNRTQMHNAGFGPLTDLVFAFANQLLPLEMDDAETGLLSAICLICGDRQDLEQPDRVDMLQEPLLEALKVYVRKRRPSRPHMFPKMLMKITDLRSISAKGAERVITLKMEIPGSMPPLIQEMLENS

In the case of `CC1=C(/C=C/C(C)=C/C=C/C(C)=C/C(=O)O)C(C)(C)CCC1` [ATRA, all-trans RA, reference compound], the “PGC-1a recruitment to RARa” value is “potently recruited”.

The values above are taken from patent publication US9504660B2, “Retinaldehyde mimetics and inhibitors of retinaldehyde dehydrogenase I in the treatment of disorders” (THE BRIGHAM AND WOMEN'S HOSPITAL, INC., priority 2012, dated 2016).
